Source: PubChem BioAssay AID602438 (Sanford-Burnham Center for Chemical Genomics, 2012)
The list shows a part of the results, in another mix than the full data. The source made the active and inactive calls.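 The calls were made as follows: active = inhibition or corrected inhibition above about 18%, plus a signal ratio from 0.5 to 1.5 (limit read from the data, passing the limit was not always enough); inactive = the rest.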

The chains behind the UniProt entries cited, without tags or fusion partners.
UniProt O14786, whole entry, looked up: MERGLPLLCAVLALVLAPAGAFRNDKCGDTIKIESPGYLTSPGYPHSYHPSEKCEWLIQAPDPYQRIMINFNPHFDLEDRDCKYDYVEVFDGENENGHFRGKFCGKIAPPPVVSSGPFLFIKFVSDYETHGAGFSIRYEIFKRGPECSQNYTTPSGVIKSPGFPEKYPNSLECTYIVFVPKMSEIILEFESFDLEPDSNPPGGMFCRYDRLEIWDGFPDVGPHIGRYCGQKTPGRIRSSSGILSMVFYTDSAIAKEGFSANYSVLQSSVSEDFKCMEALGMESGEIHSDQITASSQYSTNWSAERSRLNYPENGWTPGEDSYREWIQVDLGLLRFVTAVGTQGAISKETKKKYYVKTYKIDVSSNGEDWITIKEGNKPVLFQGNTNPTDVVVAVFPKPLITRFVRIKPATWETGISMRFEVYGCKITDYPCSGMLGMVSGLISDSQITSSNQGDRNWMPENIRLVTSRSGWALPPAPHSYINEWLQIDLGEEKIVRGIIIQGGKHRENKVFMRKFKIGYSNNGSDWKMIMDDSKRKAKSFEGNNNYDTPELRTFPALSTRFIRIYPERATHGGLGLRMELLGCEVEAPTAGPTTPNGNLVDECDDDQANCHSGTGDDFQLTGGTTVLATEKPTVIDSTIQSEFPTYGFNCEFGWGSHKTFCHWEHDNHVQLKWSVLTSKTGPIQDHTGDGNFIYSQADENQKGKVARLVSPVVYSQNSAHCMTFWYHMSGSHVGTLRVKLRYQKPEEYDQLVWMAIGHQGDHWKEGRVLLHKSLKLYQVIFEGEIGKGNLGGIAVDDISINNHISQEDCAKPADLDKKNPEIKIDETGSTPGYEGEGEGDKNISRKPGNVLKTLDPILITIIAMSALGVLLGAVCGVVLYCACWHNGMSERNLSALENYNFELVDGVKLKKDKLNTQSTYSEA

These compounds were tested against Neuropilin-1 (Homo sapiens) (UniProt O14786) (assay: modulators of CendR peptide binding to NRP-1, primary screen, biochemical, fluorescence polarization, uHTS (AID 602438)). Settings: FAM-RPARPAR peptide binding to NRP-1, fluorescence polarization; at 25 µM; hits give high values.

Structure (SMILES)	inhibition
COP1(=S)c2c(C)nn(CCC#N)c2N=C(c2ccc(F)cc2)N1C (centres undefined)	inactive: 13.2%
COC(=O)C1(C)COP(=O)(N2CCCC2)OC1 (centres undefined)	inactive: 0.3%
O=[N+]([O-])c1cc(Oc2ccc([N+](=O)[O-])cc2C(F)(F)F)cc([N+](=O)[O-])c1	inactive: -1.1%
COc1ccc(N/C(=N/P(=O)(N2CCOCC2)N2CCOCC2)N2CCOCC2)cc1	inactive: 4.1%
O=P1(N(CCCl)CCCl)Nc2ccccc2N1	inactive: 5.1%
O=P1(N(CCCl)CCCl)OCCCN1CCCl (centres undefined)	inactive: 10.6%
COc1ccc2nc(NP(=O)(c3ccccc3)c3ccccc3)sc2c1	active: 19%
COc1cc(I)ccc1[As](=O)(O)O	inactive: 1.1%
Cc1c2c(nc3ccccc13)SC(C(Cl)Cl)C2 (centres undefined)	inactive: 0.7%
O=C(OC1CN2CCC1CC2)C12CC3CC(CC(C3)C1)C2 (centres undefined)	inactive: 4.1%
Cc1cc(=O)[nH]c(N[N+](=O)[O-])n1	inactive: -4.3%
CC(C)NC(=O)NP(=O)(Oc1ccccc1)Oc1ccccc1	inactive: 16.4%
CCN(CC)C(=S)SC(NC=O)C(Cl)(Cl)Cl (centres undefined)	inactive: -1.2%
O=C(OC1CN2CCC1CC2)c1cccc2[nH]cnc12 (centres undefined)	inactive: 0.8%
O=[N+]([O-])c1cc([N+](=O)[O-])c(-c2ccn[nH]2)s1	inactive: 12.4%
ClCCSc1nnc(-c2cccnc2)o1	inactive: 16.7%
COC(=O)C1(C)COP(=O)(N2CCCCCC2)OC1 (centres undefined)	inactive: -4.3%
CC(C)c1ccc(OP(=O)(Nc2ccccn2)Oc2ccccc2F)cc1 (centres undefined)	inactive: -4.3%
Cc1ccc(OP(=O)(Nc2ccc([N+](=O)[O-])cn2)Oc2ccc(C)cc2)cc1	inactive: 6.3%
[N-]=[N+]=NC1CCCCC1NC(=O)c1cc([N+](=O)[O-])cc([N+](=O)[O-])c1 (centres undefined)	inactive: 11.4%
Cc1ccc2nc3c(c(C)c2c1)CC(C(Cl)Cl)S3 (centres undefined)	inactive: -7.6%
C[As](=O)(O)c1cccc(C(=O)O)c1	inactive: 18%
O=[As](O)(c1ccc(O)cc1)c1ccccc1O	inactive: -5.3%
O=[N+]([O-])c1ccc(-c2cc([N+](=O)[O-])c(O)c([N+](=O)[O-])c2)cc1	inactive: -17.1%
COc1cc(C(=O)NCC2(N3CCOCC3)CCCCC2)ccc1OCC(C)C	inactive: 1.4%

Structure (SMILES)	inhibition
N#CCCN(C(=O)COC(=O)C(O)(c1ccccc1)c1ccccc1)c1ccc(F)cc1	inactive: 7.3%
CN(C(=O)Cc1ccccc1)[C@@H]1CC[C@]2(CCCO2)C[C@H]1N1CCCC1	inactive: -16.5%
CCOP1(=S)c2c(C)nn(CCC#N)c2N=C(c2ccc(F)cc2)N1C (centres undefined)	inactive: 16%
O=[N+]([O-])c1ccc2c(c1)nnn2O	inactive: 0.2%
CN(C)C(=O)c1cc([N+](=O)[O-])cc2c1-c1c(cc([N+](=O)[O-])cc1[N+](=O)[O-])C2=O	inactive: 21.9%
CN(C(=O)Cc1ccc(Cl)c(Cl)c1)[C@H]1CC[C@@]2(CCCO2)C[C@@H]1N1CCCC1	inactive: -0.9%
NC(=O)Nc1ccc([As](=O)(O)O)cc1	inactive: 10.6%
O=C(O)COc1ccc([As](=O)(O)O)cc1[N+](=O)[O-]	inactive: 16.9%
Nc1ccccc1[As](=O)(O)c1ccccc1	inactive: 0.2%
CCOP1(=S)c2c(C)nn(CCC#N)c2N=C(c2ccccc2F)N1C (centres undefined)	inactive: -17.2%
O=P(Nc1nccs1)(Oc1ccccc1)Oc1ccccc1	inactive: -0.6%
O=P(Nc1nccs1)(c1ccccc1)c1nc2ccccc2s1 (centres undefined)	inactive: -2.4%
CS(=O)(=O)c1cc([N+](=O)[O-])c2no[n+]([O-])c2c1	inactive: 2.2%
COc1cc(C2NCCC3(OCCO3)C2(C)C)cc(OC)c1OC (centres undefined)	inactive: -11.6%
CCOP(=O)(Nc1cccc2ccccc12)OCC	inactive: 8.5%
Cc1ccc(NCCc2c([N+](=O)[O-])cc([N+](=O)[O-])cc2[N+](=O)[O-])cc1	inactive: 1.4%
Nc1cccc2c([As](=O)(O)O)cccc12	inactive: -43.1%
CCCOP(=S)(Nc1nc(N)cc(=O)[nH]1)OCCC	inactive: -13.3%
Cc1cccc(OCC(=O)OC2CN3CCC2CC3)c1 (centres undefined)	inactive: -6%
O=[As](O)(c1cccc(O)c1)c1cccc(O)c1	inactive: 2.3%
O=C(OC1CN2CCC1CC2)c1ccc(Cl)cc1 (centres undefined)	inactive: -9.1%
O=[As](O)(O)c1cccnc1	inactive: 7.7%
COc1cc(C(=O)NCC2(N3CCOCC3)CCCCC2)cc(Cl)c1OC(C)C	inactive: 3.4%
CS(=O)(=O)c1ccc(Cl)c(NC(=O)COC(=O)C(O)(c2ccccc2)c2ccccc2)c1	inactive: 6.4%
CN(C(=O)Cc1ccc(Cl)c(Cl)c1)[C@@H]1CCCC[C@H]1N1CCCC1	inactive: 5.4%

Structure (SMILES)	inhibition
CC(C)/C=N\N=C(\N)N[N+](=O)[O-]	inactive: -5%
CC1(CBr)Cn2c(nc3ccccc3c2=O)S1 (centres undefined)	inactive: 5.7%
COc1ccccc1CNC(=O)COC(=O)C(O)(c1ccccc1)c1ccccc1	inactive: 5.1%
Clc1n[nH]nc1-c1nn[nH][15n]1	inactive: -3.9%
O=P1(N(CCCl)CCCl)NCCC(C(F)(F)F)O1 (centres undefined)	inactive: 4.2%
CC(C)(C)C(=O)NC(Sc1ncccn1)C(Cl)(Cl)Cl (centres undefined)	inactive: -2.5%
CCC1=CC2Cc3nc4ccc(Cl)cc4c(N)c3C(C1)C2 (centres undefined)	inactive: -6.5%
O=P1(Nc2ccccn2)COc2ccccc2OC1	inactive: -7%
CCOP(=O)(NC(=NC(C)c1ccccc1)NC(C)c1ccccc1)OCC (centres undefined)	inactive: 1.8%
CCOP(=O)(Nc1ccc(C)cn1)OCC	inactive: 7.8%
CN(CCCl)Cc1cc(Cl)c(NC2=NCCN2)c(Cl)c1	inactive: -5.2%
Nc1cccc([As](=O)(O)c2ccccc2)c1	inactive: -8.7%
Cc1ccc(OCC(=O)OC2CN3CCC2CC3)cc1 (centres undefined)	inactive: 9.2%
O=[As](O)(c1cccs1)c1cccs1	inactive: 5.9%
NS(=O)(=O)c1cccc(NC(=O)COC(=O)C(O)(c2ccccc2)c2ccccc2)c1	inactive: 9.9%
O=P1(Nc2ccc(Br)cn2)COc2ccccc2OC1	inactive: 0.6%
Cc1ccc(S(=O)(=O)N(CCCN)CCCc2c(C)nc(N)[nH]c2=O)cc1	inactive: 3.5%
O=P1(Nc2ncccn2)COc2ccccc2OC1	inactive: 17.8%
CN(C)C1(CNC(=O)c2ccc(S(C)(=O)=O)cc2)CCCCC1	inactive: -8.2%
O=C(/C=C/c1ccccc1)OC1CN2CCC1CC2 (centres undefined)	inactive: -7.4%
CCCC1OP(=O)(Nc2ccccc2)OCC1CC (centres undefined)	inactive: 1.1%
Cc1nn(-c2ccccc2)c2c1P(=O)(N1CCOCC1)N(C)C(c1ccccc1)=N2 (centres undefined)	inactive: 10.3%
Cc1ccc(C(=O)OC2CN3CCC2CC3)cc1 (centres undefined)	inactive: 4.8%
CC1CCC(C(C)C)C(OP(=O)(Nc2ccccn2)c2ccccc2)C1 (centres undefined)	inactive: 7%
